Experiments:
newborn rats = assay: Fentanyl-induced respiratory depression in rat pups (postnatal day 3-4), plethysmography; assay type: in vivo; details: for reversal of fentanyl-induced VT depression in pups: nicotine or A85380
adult rats [1] = assay: Fentanyl-induced respiratory depression, whole-body plethysmography in adult rats; details: for fentanyl-induced fR decrease / fentanyl-induced decrease in oxygen saturation / fentanyl-induced fR decrease / respiratory depression: fentanyl 60 μg/kg over 20 min iv; for fentanyl-induced fR decrease: sazetidine-A 0.5-2 mg/kg or VMY-2-95 1 mg/kg iv; for reversal of fentanyl-induced decrease of respiratory frequency: fentanyl 60 μg/kg over 20 min iv infusion, iv bolus after fentanyl: A85380 0.03, Rivanicline 3, NS9283 10, PNU282987 15 mg/kg; for unwanted behavioral changes (hyperalgesia, hyperventilation, abnormal body movements) / abnormal behavior: with fentanyl, preliminary studies; for median onset of effect (reversal of fR decrease): A85380 0.03 mg/kg, naloxone 0.3 mg/kg; for fentanyl-induced muscle rigidity / reversal of fentanyl-induced decrease in tidal volume (VT): adult rats, fentanyl iv infusion; for persistence of the reversal of fR decrease: fentanyl 60 μg/kg over 20 min, VMY-2-95 1 mg/kg iv, A85380 highest dose (0.03 mg/kg iv); for fentanyl-induced fR decrease / respiratory depression: nicotine 0.1-0.3, A85380 0.01-0.03, PNU282987 1-10 mg/kg iv (Example 12)
adult rats [2] = assay: Fentanyl-induced sedation (loss of righting reflex) in adult rats; assay type: in vivo, rat; details: fentanyl 20 μg/kg over 400s; A85380 0.06 mg/kg sc
adult rats [3] = assay: Remifentanil-induced apnea in adult rats; details: remifentanil 5 μg/kg co-administered with A85380 0.03-0.06 mg/kg iv
adult rats [4] = assay: Heart rate (pulse oximeter) in adult rats; details: fentanyl 30 μg/kg over 10 min iv, subsequent lobeline
adult rats [5] = assay: Formalin test (licking and lifting) in adult rats; assay type: in vivo, rat; details: fentanyl 30 μg/kg over 10 min iv; lobeline 3 mg/kg 7 min post fentanyl
[6] = fentanyl 35 μg/kg sc, ~7 min later sazetidine-A 0.2-0.5 or VMY-2-95 1 mg/kg sc
[7] = fentanyl 35 μg/kg, nicotine 0.3-0.6, A85380 0.03-0.06 (dose-dependent), PNU282987 1-20 mg/kg sc
[8] = DHβE 6 mg/kg with fentanyl, lobeline 10 mg/kg
[9] = fentanyl 35 μg/kg, lobeline 10 mg/kg sc
[10] = fentanyl 12 μg/kg over 1 min iv co-administered with lobeline 3 mg/kg over 1 min iv

OCCCCC#Cc1cncc(OC[C@@H]2CCN2)c1 [sazetidine-A, 6-[5-[(2S)-2-Azetidinylmethoxy]-3-pyridinyl]-5-hexyn-1-ol]
fentanyl-induced respiratory depression (decrease in fR, VT, VE) (newborn rats; [6]): alleviated
fentanyl-induced fR decrease (adult rats [1]): did not change the course of fentanyl action

N#Cc1cccc(-c2nc(-c3cccnc3)no2)c1 [NS9283, 3-[3-(3-Pyridinyl)-1,2,4-oxadiazol-5yl]benzonitrile]
reversal of fentanyl-induced decrease of respiratory frequency (adult rats [1]): partially and transiently reversed
unwanted behavioral changes (hyperalgesia, hyperventilation, abnormal body movements) / abnormal behavior (adult rats [1]): not observed

C=CCN1CC[C@]23c4c5ccc(O)c4O[C@H]2C(=O)CC[C@@]3(O)[C@H]1C5
median onset of effect (reversal of fR decrease) (adult rats [1]): 10.1 s

c1cncc(OC[C@@H]2CCN2)c1 [A85380, 3-(2(s)-azetidinylmethoxy) pyridine]
fentanyl-induced respiratory depression (decrease in fR, VT, VE) (newborn rats; [7]): alleviated
reversal of fentanyl-induced VT depression in pups (newborn rats): reversal of the VT depression
median onset of effect (reversal of fR decrease) (adult rats [1]): 11.1 s
prevention of fentanyl-induced respiratory depression (adult rats [1]; A85380 0.06 mg/kg neck sc 2 min prior to fentanyl 20 μg/kg, 400s infusion): reduced the severity of fentanyl-induced respiratory depression
behavioral side effects (adult rats [1]; A85380 0.06 mg/kg sc): no behavioral side effects were observed
fentanyl-induced muscle rigidity (adult rats [1]): did not appear to reduce the muscle rigidity
reversal of fentanyl-induced decrease in tidal volume (VT) (adult rats [1]): no reversal of VT
fentanyl-induced decrease of body temperature (median) (adult rats [1]; end of 20-min infusion of 60 μg/kg fentanyl, A85380 treatment): −1.2 °C
persistence of the reversal of fR decrease (adult rats [1]): persisted beyond the duration of the fentanyl infusion
fentanyl-induced decrease in oxygen saturation (adult rats [1]): alleviated
reversal of fentanyl-induced decrease of respiratory frequency (adult rats [1]): quickly and completely reversed
fentanyl-induced fR decrease / respiratory depression (adult rats [1]): dose-dependently reversed
unwanted behavioral changes (hyperalgesia, hyperventilation, abnormal body movements) / abnormal behavior (adult rats [1]): not observed
loss of righting reflex (adult rats [2]): 16.2±1.3 min post fentanyl
incidence of remifentanil-induced apnea (adult rats [3]): markedly reduced the incidence of apnea
remifentanil-induced depression of VE (adult rats [3]): reduced the depression of VE

dihydro-beta-erythroidine
effect of DHβE co-application on alleviation of fentanyl-induced respiratory depression by agonists (newborn rats; DHβE 6 mg/kg with fentanyl, then sazetidine-A or VMY-2-95, nicotine or A85380): prevented the alleviation

CN1[C@@H](CC(=O)c2ccccc2)CCC[C@H]1C[C@H](O)c1ccccc1 [lobeline, 2-((2R,6S)-6-((S)-2-Hydroxy-2-phenylethyl)-1-methylpiperidin-2-yl)-1-phenylethanone]
lobeline effects on fentanyl-induced depression of VT with DHβE (newborn rats; [8]): but not VT
lobeline effects on fentanyl-induced depression of fR with DHβE (newborn rats; [8]): partially suppressed
fentanyl-induced decrease in respiratory rate (fR) (newborn rats; [9]): partially reversed
fentanyl-induced decrease in tidal volume (VT) (newborn rats; [9]): completely reversed
lobeline effects on fentanyl-induced respiratory depression with mecamylamine (newborn rats; mecamylamine 6 mg/kg with fentanyl, lobeline 10 mg/kg): markedly suppressed, but not completely abolished
fentanyl-induced bradycardia (adult rats [4]): markedly alleviated fentanyl-induced bradycardia
fentanyl-induced muscle rigidity (adult rats [1]): may have been mildly alleviated, but still persisted
fentanyl-induced apneas (adult rats [1]; [10]): blocked apneas
prevention of fentanyl-induced respiratory depression (adult rats [1]; [10]): completely prevented
fentanyl-induced respiratory depression in fR, VT, VE, and Sao2 (adult rats [1]; fentanyl 30 μg/kg over 10 min iv, lobeline 3 mg/kg iv bolus ~7 min after fentanyl): completely reversed
fentanyl-induced analgesia, phase I (adult rats [5]): further increased fentanyl-induced analgesia
fentanyl-induced analgesia, phase II (adult rats [5]): tended to increase the fentanyl-induced analgesia in the phase II, but the difference is not significant

CN1CCCC1c1cccnc1 (stereo not shown) [nicotine]
fentanyl-induced respiratory depression (decrease in fR, VT, VE) (newborn rats; [7]): alleviated
reversal of fentanyl-induced VT depression in pups (newborn rats): reversal of the VT depression
fentanyl-induced decrease in oxygen saturation (adult rats [1]): alleviated
fentanyl-induced fR decrease / respiratory depression (adult rats [1]): reversed the fentanyl-induced fR decrease
duration of reversal of fR decrease (adult rats [1]; nicotine 0.1-0.3 mg/kg iv): 5 to 10 min

O=C(N[C@H]1CN2CCC1CC2)c1ccc(Cl)cc1 [PNU282987]
fentanyl-induced respiratory depression (decrease in fR, VT, VE) (newborn rats; [7]): no reversal
fentanyl-induced decrease in oxygen saturation (adult rats [1]): but not by PNU282987
reversal of fentanyl-induced decrease of respiratory frequency (adult rats [1]): had no effect
fentanyl-induced fR decrease / respiratory depression (adult rats [1]): had no effect

CNC1(C)C2CCC(C2)C1(C)C (stereo not shown)
effect of mecamylamine on fentanyl-induced respiratory depression (newborn rats; mecamylamine 6 mg/kg co-administered with fentanyl 35 μg/kg): did not affect the fentanyl-induced respiratory depression

C(#Cc1cncc(OC[C@@H]2CCN2)c1)c1ccccc1 [VMY-2-95, 3-[(2S)-2-Azetidinylmethoxy]-5-(2-phenylethynyl)-pyridine]
fentanyl-induced VT decrease in pups (newborn rats; VMY-2-95): alleviated
fentanyl-induced respiratory depression (decrease in fR, VT, VE) (newborn rats; [6]): alleviated
fentanyl-induced muscle rigidity (adult rats [1]): did not reduce the muscle rigidity
reversal of fentanyl-induced decrease in tidal volume (VT) (adult rats [1]): not a reversal of VT
persistence of the reversal of fR decrease (adult rats [1]): persisted beyond the duration of the fentanyl infusion
fentanyl-induced fR decrease (adult rats [1]): reversed the fentanyl-induced fR decrease

CNCC/C=C/c1cccnc1 [Rivanicline, (E)-N-Methyl-4-(3-pyridinyl)-3-butene-1-amine]
reversal of fentanyl-induced decrease of respiratory frequency (adult rats [1]): quickly and partially reversed
unwanted behavioral changes (hyperalgesia, hyperventilation, abnormal body movements) / abnormal behavior (adult rats [1]): not observed
